The antibiotic and cytotoxicity screens of Wong et al. (2023)
For part of these data: What follows is the remainder of the data, with few or none of the hits. Only a part is listed here, and it is no random draw.

Legend:
[1] = system: HSkMC (human skeletal muscle cells); test: cytotoxicity call (relative viability < 0.9); conditions: 10 µM
[2] = system: HepG2; test: cytotoxicity call (relative viability < 0.9); conditions: 10 µM
[3] = system: S. aureus RN4220; test: growth inhibition call (relative growth <= 0.2); conditions: 50 µM

Row | Compound | cytotoxicity call [1] | cytotoxicity call [2] | growth inhibition call [3]
1 | c1ccc(-c2ccccn2)cc1 | inactive | inactive | inactive
2 | COc1c2ccccc2nc2occc12 | inactive | active | inactive
3 | COc1cc(Br)c(C[N+]2(CCOCC[C@H]3CC[C@@H]4C[C@H]3C4(C)C)CCOCC2)cc1OC | inactive | inactive | active
